Screens: PubChem, ICCB-Longwood Screening Facility, Harvard Medical School
This excerpt belongs to a sample that is enriched for hits.
GIV Gai3 FP: GIV-Galpha-i interaction inhibition. 210,000 compounds, 0.42% hits. percent of control (FP), % (no concentration beside the values). Galpha-i3/FITC-GIV peptide fluorescence polarization, 90 min; active compounds read low; scaled: aluminum fluoride 0%, vehicle 100%. AID 1224905. P08753;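 active = replicate mean at 85% of control or lower, very high polarization wells dropped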;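 note: wells of about 15 µL received 100 nL stock; the first replicate is given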
GIV-Gai FP conf: inhibitors of GIV peptide binding to Galpha-i3, confirmation, biochemical, fluorescence polarization, FITC-GIV peptide, rat Galphai3; shares compounds with GIV Gai3 FP; active compounds read low; fluorescence polarization, mP at 100 µM; hit rate 38% among 580; AID 1259350, 2017;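 active = inhibition score of 15 or more, meaning 100 minus mean polarization as percent of control over three replicates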;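 note: lower mP means peptide displaced from Galphai3 so more inhibition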
GIV Gai AS conf: inhibitors of GIV binding to Galpha-i3, confirmation, orthogonal assay for GIV-Galpha-i inhibitor project, biochemical, AlphaScreen, His-GIV, GST-Galphai3; shares compounds with GIV Gai3 FP; purified proteins, 90 min; active compounds read low; AlphaScreen counts at 100 µM; hit rate 39% among 580;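 active = inhibition score at or above a set limit, where the score is 100 minus the three-replicate mean percent of control signal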
An asterisk follows results filed as active.

SMILES	GIV Gai3 FP	others
COC(=O)c1ccsc1NC(=O)c1cccc(C)c1	65.4*	GIV-Gai FP conf=69.2;GIV Gai AS conf=35067
Cc1c(Br)c(C(F)(F)F)nn1CC(=O)Nn1c(-c2ccccc2F)nc2ccccc2c1=O	102.7
CCOC(=O)C1CCCN(C(=O)Cn2c(=O)c3ccccc3n3c(=S)sc(-c4cccc(Cl)c4)c23)C1 (configuration not stated)	120.2
CCOC(=O)C1CCCN(C(=O)Cn2c(=O)c3ccccc3n3c(=S)sc(-c4ccccc4F)c23)C1 (configuration not stated)	103.4
CC1CCN(C(=O)Cn2c(=O)c3ccccc3n3c(=S)sc(-c4ccccc4F)c23)CC1	81.3*	GIV-Gai FP conf=86.6;GIV Gai AS conf=20249
Cc1nn(-c2ccc3nncn3n2)c(C)c1CCC(=O)Nc1ccc(OC(F)(F)F)cc1	110.3
Cc1nn(-c2ccc3nncn3n2)c(C)c1CCC(=O)Nc1ccc(F)c(Cl)c1	89.4	GIV-Gai FP conf=78.2;GIV Gai AS conf=27312
CC(=O)Nc1ccc(NC(=O)CCc2c(C)nn(-c3ccc4nncn4n3)c2C)cc1	103.1
CCOC(=O)C1(C)C=C(Nc2ccc(S(N)(=O)=O)cc2)C(=O)N1c1ccc(S(N)(=O)=O)cc1 (configuration not stated)	107.1
Cc1ccc(C(=O)CSc2ncn[nH]2)cc1	96.0
O=C1C(Sc2ccccc2)=C/C(=N/S(=O)(=O)c2cccs2)c2ccccc21	95.3
Cc1ccc(S(=O)(=O)Nc2ccc(O)c(Sc3ncn[nH]3)c2)cc1	99.8
Cc1ccc(S(=O)(=O)/N=C2/C=C(Sc3ncn[nH]3)C(=O)c3ccccc32)cc1	5.9*	GIV-Gai FP conf=15.5*;GIV Gai AS conf=6564*
Cc1ccc(S(=O)(=O)N=C2C=CC(=NS(=O)(=O)c3ccc(C)cc3)C=C2)cc1	108.8
Cc1ccc(S(=O)(=O)/N=C2\C=C(Sc3ncn[nH]3)C(=O)c3ccccc32)cc1	83.1*	GIV-Gai FP conf=54.3*;GIV Gai AS conf=4566*
CC(C)c1ccc(S(=O)(=O)/N=C2/C=C(Sc3ncn[nH]3)C(=O)c3ccccc32)cc1	13.4*	GIV-Gai FP conf=26.1*;GIV Gai AS conf=3681*
Cc1ccc(S(=O)(=O)/N=C2\C=CC(=O)c3ccccc32)c(C)c1	101.7
O=C(c1ccccc1)C(Sc1ncn[nH]1)c1ccccc1 (configuration not stated)	98.3
NC(=S)n1[nH]c(-c2ccccc2)c(N=Nc2ccccc2O)c1=O	176.2
CC(C)Cn1c(=O)c2sccc2n2c(CCC(=O)N3CCN(C4CCCCC4)CC3)nnc12	98.3
CCOC(=O)CSc1nc2nc[nH]c2c(=O)[nH]1	96.9
O=C(Cn1ncc2c1-c1ccccc1OC2)NCc1cccs1	104.1
Cc1ccc(NC(=O)Cn2c(=O)c(CCC(=O)NC3CCCC3)nc3ccccc32)cc1C	96.7
COc1ccc(C(=O)Nc2cc(C(=O)Nc3ccc(F)c(F)c3)ccc2N2CC3CC(C2)c2cccc(=O)n2C3)cc1 (configuration not stated)	110.0
Cc1cc(C)nc(NS(=O)(=O)c2ccc(NC(=O)/C(C#N)=C/c3ccc(C(C)C)cc3)cc2)n1	104.5

Overlap with the part before: 2 entries, followed by the next part.
SMILES	GIV Gai3 FP	others
COc1ccc(C(=O)Nc2cc(C(=O)Nc3ccc(F)c(F)c3)ccc2N2CC3CC(C2)c2cccc(=O)n2C3)cc1 (configuration not stated)	110.0
Cc1cc(C)nc(NS(=O)(=O)c2ccc(NC(=O)/C(C#N)=C/c3ccc(C(C)C)cc3)cc2)n1	104.5
CCOc1cccc(=[O+]CC)c2c(C)oc(C)c12	68.1*	GIV-Gai FP conf=44.2*;GIV Gai AS conf=2733*
CCOCCOc1cccc2oc(C(=O)OCC)cc(=O)c12	102.8
CCOc1cccc(=O)c2c(C)oc(C)c12	92.0
C=CCNC(=O)C(C)Sc1nnc2c(n1)[nH]c1ccccc12 (configuration not stated)	98.8
C=CCSc1nnc2c(n1)[nH]c1ccccc12	102.6
C=CCNc1nc2c([nH]c3ccccc32)s1	87.4	GIV-Gai FP conf=56.3*;GIV Gai AS conf=13174*
Cc1nc2ncccc2c(=O)n1-c1cccc(NC(=O)c2ccccc2Cl)c1	103.3
COc1ccc(/C=C2\C=C(c3ccccc3)N(c3ccc(Br)cc3C)C2=O)cc1	34.3*	GIV-Gai FP conf=65.5;GIV Gai AS conf=40529
COc1ccc(/C=C2\C=C(c3ccccc3)N(c3cccc(Br)c3)C2=O)cc1	109.6
COc1ccc(/C=C2\C=C(c3ccccc3)N(c3ccc(Br)cc3C)C2=O)cc1Br	110.2
O=S(=O)(Nc1ccc2c(c1)OCO2)c1ccc2nncn2c1	103.2
CCOC(=O)COc1cccc(Cl)c1	107.7
CCOC(=O)COc1ccc2c(C#N)c3ccccn3c2c1	43.0*	GIV-Gai FP conf=64.3;GIV Gai AS conf=44204
N#Cc1c2ccc(OCC(N)=O)cc2n2ccccc12	103.1
Cc1ccc(CN2C(=O)C3CCCCC3C2=O)cc1S(=O)(=O)NC1CC1 (configuration not stated)	96.9
Cc1ccc(C(=O)N2CCCC(c3cccc(C(=O)NCCc4c[nH]c5ccccc45)c3)C2)cc1 (configuration not stated)	105.8
CC(C)(C)C(=O)OCc1nc(-c2ccc3c(c2)OCO3)cs1	102.4
CCNc1nc(NC(C)(C)C)nc(-n2cnc(SC)n2)n1	97.6
c1cc2c(cc1CNc1ccc3nncn3n1)OCO2	101.1
O=C(O)c1cccc(NC(=O)c2ccccc2C(=O)O)c1	99.7
O=C(Nc1cccc(Cl)c1)c1ccc(Cl)cc1	102.0
O=C(O)c1ccc(C(=O)Nc2cccc(Cl)c2)c(C(=O)O)c1	64.2*	GIV-Gai FP conf=62.4*;GIV Gai AS conf=34772
CN1CCN(C(=O)c2cccc(S(=O)(=O)N(C)C)c2)CC1	103.1
O=C(NCc1ccc2c(c1)OCO2)c1ccc(-c2nccc(Oc3ccccc3)n2)cc1	102.0
CC1CCCCN1CCNC(=O)Cn1ncc2c1-c1ccccc1OC2 (configuration not stated)	103.2

Brought forward from above: 5 compounds, followed by the next part.
SMILES	GIV Gai3 FP	others
O=C(Nc1cccc(Cl)c1)c1ccc(Cl)cc1	102.0
O=C(O)c1ccc(C(=O)Nc2cccc(Cl)c2)c(C(=O)O)c1	64.2*	GIV-Gai FP conf=62.4*;GIV Gai AS conf=34772
CN1CCN(C(=O)c2cccc(S(=O)(=O)N(C)C)c2)CC1	103.1
O=C(NCc1ccc2c(c1)OCO2)c1ccc(-c2nccc(Oc3ccccc3)n2)cc1	102.0
CC1CCCCN1CCNC(=O)Cn1ncc2c1-c1ccccc1OC2 (configuration not stated)	103.2
N#Cc1c(Sc2ccccc2)ncc2cc3ccccc3nc12	79.2*	GIV-Gai FP conf=67;GIV Gai AS conf=50621
CSc1nc(C)nc(Sc2ccccc2)c1C#N	125.0
N#Cc1ccc(Sc2ccccc2)nc1	98.9
COC(=O)c1ccc(-c2c3c(nc4nc(N)[nH]c(=O)c24)-c2ccccc2C3=O)cc1	75.1*	GIV-Gai FP conf=75;GIV Gai AS conf=26602
NC(=O)c1sc2nc3c(c(-c4ccc([N+](=O)[O-])cc4)c2c1N)C(=O)c1ccccc1-3	121.2
COC(=O)c1ccc(-c2ccccc2F)cc1	99.2
O=C(O)c1cc(-c2ccc3c(c2)OCO3)on1	102.0
Cc1cc(C)c(S(=O)(=O)n2c(SCC(=O)NC3CCCCC3)nc3ccccc32)c(C)c1	98.4
O=C(CN1C2=NCCCN2c2ccccc21)c1ccc(F)cc1	89.4
O=C(CN1C2=NCCCN2c2ccccc21)c1ccc(Cl)c(Cl)c1	114.9
O=C(CN1C2=NCCCN2c2ccccc21)c1ccc(Cl)cc1	90.2	GIV-Gai FP conf=68.3;GIV Gai AS conf=45914
CCOc1cc(C2C(C#N)=C(N)OC3=C2C(=O)CC(C)(C)C3)cc([N+](=O)[O-])c1OC(=O)c1cccs1 (configuration not stated)	103.7
CCOc1ccc(NC(=O)NC2COc3ccccc3C2)cc1 (configuration not stated)	98.7
O=C1Nc2ccccc2S/C1=C\C(=O)N1CCC2(CC1)OCCO2	109.0
CC1CC(=O)c2cnc(N3CCN(c4ccc(F)cc4)CC3)nc2C1 (configuration not stated)	100.1
O=C1CCCc2nc(N3CCN(c4ccccc4F)CC3)ncc21	82.3*	GIV-Gai FP conf=68.1;GIV Gai AS conf=44943
